This experiment has as its target Receptor tyrosine-protein kinase erbB-2 (Homo sapiens, UniProt P04626). Description: Inhibition of HER2 kinase in intact CSH12 cells; Range = 25-50 nM. Format: cell-based.

Sequences of proteins named here, by UniProt entry; tags and fusion partners are left off.
UniProt P04626, whole entry: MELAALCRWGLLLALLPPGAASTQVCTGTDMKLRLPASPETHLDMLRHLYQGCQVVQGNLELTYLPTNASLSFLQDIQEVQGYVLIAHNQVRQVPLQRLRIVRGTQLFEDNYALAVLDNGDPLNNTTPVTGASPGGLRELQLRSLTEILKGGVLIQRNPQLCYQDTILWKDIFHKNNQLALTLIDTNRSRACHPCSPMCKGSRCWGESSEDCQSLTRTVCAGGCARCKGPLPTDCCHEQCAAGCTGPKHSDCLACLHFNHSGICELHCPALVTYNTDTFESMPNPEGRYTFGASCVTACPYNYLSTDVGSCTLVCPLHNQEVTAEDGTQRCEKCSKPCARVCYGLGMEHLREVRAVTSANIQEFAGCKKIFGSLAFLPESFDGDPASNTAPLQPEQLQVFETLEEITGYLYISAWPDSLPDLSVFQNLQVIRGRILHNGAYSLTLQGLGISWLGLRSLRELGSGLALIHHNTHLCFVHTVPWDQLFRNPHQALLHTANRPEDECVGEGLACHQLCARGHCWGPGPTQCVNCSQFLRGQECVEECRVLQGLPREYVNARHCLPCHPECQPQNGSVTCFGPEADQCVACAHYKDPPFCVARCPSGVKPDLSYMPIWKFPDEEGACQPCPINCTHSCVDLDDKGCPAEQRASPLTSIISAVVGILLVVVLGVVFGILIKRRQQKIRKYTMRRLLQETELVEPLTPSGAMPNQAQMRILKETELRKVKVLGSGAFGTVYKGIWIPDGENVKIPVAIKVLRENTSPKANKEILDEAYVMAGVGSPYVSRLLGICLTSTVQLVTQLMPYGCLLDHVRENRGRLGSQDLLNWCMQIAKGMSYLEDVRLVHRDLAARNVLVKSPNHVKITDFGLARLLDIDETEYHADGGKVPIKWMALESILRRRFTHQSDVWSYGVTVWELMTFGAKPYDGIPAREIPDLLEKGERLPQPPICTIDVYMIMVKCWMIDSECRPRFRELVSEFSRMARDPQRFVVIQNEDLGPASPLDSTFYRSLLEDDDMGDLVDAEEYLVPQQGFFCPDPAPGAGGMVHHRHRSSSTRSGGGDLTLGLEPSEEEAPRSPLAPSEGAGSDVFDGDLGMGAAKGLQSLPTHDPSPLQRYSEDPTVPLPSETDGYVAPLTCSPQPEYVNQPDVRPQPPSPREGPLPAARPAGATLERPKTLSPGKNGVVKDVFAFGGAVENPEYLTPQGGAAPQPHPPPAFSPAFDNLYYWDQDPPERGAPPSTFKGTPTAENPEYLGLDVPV

One may read the IC50 as the concentration that inhibits the measured activity by half. `CN(C)C/C=C/C(=O)Nc1ccc2ncnc(Nc3cc(Cl)c(Cl)cc3F)c2c1` came in with an IC50 of 50 nM.

Source of the values: ChEMBL document CHEMBL1141151, “High-affinity epidermal growth factor receptor (EGFR) irreversible inhibitors with diminished chemical reactivities as positron emission tomography (PET)-imaging agent candidates of EGFR overexpressing tumors” (J Med Chem, 2005).
